Data: patent publication US6693132B2, “Methods for using alkanoyloxymethyl esters” (Beacon Laboratories, Inc., priority 2000, dated 2004)

Target: histone deacetylase isolated from rat liver
Assay: Histone deacetylase inhibition assay with fluorescent substrate MAL, HPLC determination
Type: biochemical
Conditions: 37° C. 90 minutes, IC50 from five dilutions, read-out: HDAC

IC50: 30 nM
SMILES: CC(/C=C/C(=O)NO)=C\[C@@H](C)C(=O)c1ccc(N(C)C)cc1 [trichostatin]
